Series [1] concerns CYP450. The experiment in a line: CYP450 activity of liver organoids differentiated with ferric citrate (LC-MS/MS). The settings on record: liver organoids cultured in suspension (S-HO FC); except for CYP1A2; measured for 24 hours. The protocol: The samples were centrifuged at 16,000 g for 10 minutes at 4° C. and the supernatant was applied to liquid chromatography-tandem mass spectrometry (LC-MS/MS). Data were normalized to protein concentration.

Series [2] concerns liver organoids. The settings on record: 20 μM in the medium composition of Tables 8 and 9; liver organoid differentiation for 15 days.

ferric citrate: in series [1], the CYP450 activity result is on record as “greatly increased”. In addition, the cytotoxicity entry in series [2] is “did not exhibit cytotoxicity”.

The values are drawn from patent US12146155B2, “Method for constructing human pluripotent stem cell-derived liver organoid having enhanced drug metabolic potential and liver organoid constructed by same method” (KOREA RESEARCH INSTITUTE OF CHEMICAL TECHNOLOGY, priority 2021, dated 2024).
